Experimental findings from PubChem BioAssay AID504660 (National Center for Advancing Translational Sciences (NCATS), 2011) are described below.

Amino acid sequences for entries named in this document (tags omitted).
UniProt P21728, whole entry: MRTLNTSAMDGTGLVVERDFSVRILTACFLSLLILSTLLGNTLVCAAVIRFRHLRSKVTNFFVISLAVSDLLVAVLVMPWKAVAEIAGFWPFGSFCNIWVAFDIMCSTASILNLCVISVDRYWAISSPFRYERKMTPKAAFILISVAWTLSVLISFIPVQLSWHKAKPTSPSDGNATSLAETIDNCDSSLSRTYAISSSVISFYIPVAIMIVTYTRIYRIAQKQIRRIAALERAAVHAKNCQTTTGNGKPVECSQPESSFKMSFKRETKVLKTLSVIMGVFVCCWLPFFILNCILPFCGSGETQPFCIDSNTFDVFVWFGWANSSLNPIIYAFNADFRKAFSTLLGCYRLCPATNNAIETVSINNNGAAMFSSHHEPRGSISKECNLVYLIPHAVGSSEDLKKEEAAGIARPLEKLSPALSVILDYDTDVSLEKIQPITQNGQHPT

Structures are written as SMILES. “And” between values parts separate entries of the source, which are not always exact repeats. Identical values can stand only once. The entries are a selection whose mix differs from that of the whole data set. Some results for these compounds are left out of this collection, so the calls shown say nothing about other tests. The source made the active and inactive calls. Rule as the data show it: active = activation above about 30%; inactive = the rest.

The target of this assay is D(1A) dopamine receptor (Homo sapiens) (UniProt P21728). Put plainly: Allosteric Agonists of the Human D1 Dopamine Receptor: qHTS. Also: 0% is about no effect. To be noted: HEK293 T-REx D1 cells, calcium flux, agonist mode; at 2 µM; active compounds read high. From the text:
NIH Chemical Genomics Center [NCGC] NIH Molecular Libraries Probe Centers Network [MLPCN] MLPCN Grant: NS064831-01 Assay Submitter (PI): David Sibley Dopamine receptors (DARs) are involved in the etiology and/or therapy of a number of neuropsychiatric and endocrine disorders. For instance, all receptor-based antiparkinsonian drugs work via stimulating the D1 DAR subtype whereas all FDA-approved antipsychotic agents are antagonists of this receptor. […] There are three different types of allosteric modulators that we are seeking, two of which will stimulate or augment receptor signaling, allosteric agonists and potentiators, while the third, allosteric antagonists, will attenuate receptor signaling. The present primary screening assay measures compound agonism by tracking calcium flux in a […], inducible Hek293 Trex D1 cell line.
Freshly passaged cells are plated in 1536 well black, clear bottom plates at a density of 4000 cells/well in 3 ul of complete media containing 1x tetracycline inducer. After an overnight incubation at […] in 5% CO2, cells are loaded with 2 ul of the no wash Calcium Assay Kit (ABD Bioquest) and incubated at room temperature for 30 to 90 minutes. Agonist read: A 10 cycle (1 second/cycle) baseline measurement is taken and then the FDSS online 1536 pintool delivers 23 nl of compound library (as well as dopamine controls) to the plate. The plate is measured for kinetically at 1 cycle/sec for 180 seconds and is considered to be the agonist portion of the assay (eg, compounds which activate a positive calcium response during this portion are flagged as potential agonists). Following the 180 second read, 1 ul of either an EC20 (positive modulation assay) or EC80 (negative modulation assay) is delivered by an onboard pipette head. Measurements are taken kinetically for an additional 180 seconds.
As to `CN(C)C1(CNC(=O)c2ccc(Br)cc2)CCCCC1`, the activation is inactive: 11.1%.

Regarding `COc1cc(C(=O)NCC2(N(C)C)CCCCC2)c([N+](=O)[O-])cc1OC`, the activation was inactive: 1.02%.

For `COc1cccc(C(=O)NCC2(N3CCCCC3)CCCCC2)c1`, the activation was inactive: 3.69%.

With `COc1ccc(Cl)cc1C(=O)NCC1(N(C)C)CCCCC1`, the activation was inactive: 2.47%.

Turning to `COc1ccc(C(=O)NCC2(N(C)C)CCCCC2)cc1Cl`, the activation is inactive: -0.29%.

`O=C(NCC1(N2CCCCC2)CCCCC1)c1cccc(Cl)c1`: the activation was inactive: 1.51%.

Turning to `COc1cccc(C(=O)NCC2(N3CCOCC3)CCCCC2)c1`, the activation is inactive: -0.963%.

As to `O=C(OC1CN2CCC1CC2)C(CO)(c1ccccc1)c1ccccc1` (centres undefined), the activation is inactive: 1.31%.

Turning to `CC(C)COc1ccc(C(=O)NCC2(N(C)C)CCCCC2)cc1`, the activation is inactive: 13.3%.

As for `Cc1cccc(C(=O)NCC2(N(C)C)CCCCC2)c1`, the activation is inactive: 2.23%.

With `COc1cc(C(=O)NCC2(N(C)C)CCCCC2)cc(OC)c1OC`, the activation is inactive: 0.379%.

In the case of `COc1ccc(Br)c(C(=O)NCC2(N3CCCCC3)CCCCC2)c1`, the activation is inactive: 2.34%.

For `CC(C)Oc1ccc(C(=O)NCC2(N(C)C)CCCCC2)cc1`, the activation is inactive: 1.25% and inactive: 19.4%.

Regarding `CN(C)c1cccc(C(=O)NCC2(N(C)C)CCCCC2)c1`, the activation is inactive: -0.44%.

`O=C(NCC1(N2CCCCC2)CCCCC1)c1cc([N+](=O)[O-])ccc1Cl`: the activation is inactive: 0.237%.

In the case of `CN1[C@@H]2CC[C@H]1CC(OC(=O)C(O)(c1ccccc1)c1ccccc1)C2` (some centres undefined), the activation was inactive: 8.33%.

Take `CCN(CC)CC(C)C(C)OC(=O)C(O)(c1ccccc1)c1ccccc1` (centres undefined): the activation was inactive: 1.74%.

`CN(C)C1(CNC(=O)c2cccc(Cl)c2)CCCCC1`: the activation is inactive: 1.95%.

For the compound `COc1cc(SC)ccc1C(=O)NCC1(N(C)C)CCCCC1`, the activation was inactive: 1.16%.

As for `CC(C)N1C(=O)CC2(CCN(CCOC(=O)C(O)(c3ccccc3)c3ccccc3)CC2)C1=O`, the activation is inactive: 4.76%.

As to `Cc1ccc(C(=O)NCC2(N3CCCCC3)CCCCC2)cc1`, the activation was inactive: 0.0574%.

As to `CN(C)C1(CNC(=O)c2ccccc2F)CCCCC1`, the activation was inactive: 1.24%.

Consider `CN(C)C1(CNC(=O)c2ccccc2[N+](=O)[O-])CCCCC1`, for which the activation was inactive: 0.25%.

Consider `Cc1ccccc1C(=O)NCC1(N2CCCCC2)CCCCC1`, for which the activation is inactive: -0.331%.

As to `CN(C)C1CCCC1OC(=O)C(O)(c1ccccc1)c1ccccc1` (centres undefined), the activation was inactive: 14%.

`CN(C)c1ccc(C(=O)NCC2(N(C)C)CCCCC2)cc1`: the activation was inactive: -1.22%.

For `CCCCOc1ccccc1C(=O)NCC1(N(C)C)CCCCC1`, the activation was inactive: 0.175%.

As to `C=CCN1CCN(CCOC(=O)C(O)(c2ccccc2)c2ccccc2)CC1`, the activation was inactive: 2.95%.

In the case of `O=C(NCC1(N2CCCCC2)CCCCC1)c1cc(F)c(F)cc1Cl`, the activation is inactive: 4.7%.

As to `COc1ccc(C(=O)NCC2(N(C)C)CCCCC2)cc1`, the activation was inactive: 5.64%.

Turning to `CCOc1cccc(C(=O)NCC2(N(C)C)CCCCC2)c1`, the activation was inactive: -0.314%.

Turning to `Cc1cc(C(=O)NCC2(N3CCCCC3)CCCCC2)ccc1[N+](=O)[O-]`, the activation is inactive: 2.84%.

For `CCN1CCCC(OC(=O)C2(O)c3ccccc3C=Cc3ccccc32)C1` (centres undefined), the activation was inactive: 4.04%.

As for `O=C(NCC1(N2CCCCC2)CCCCC1)c1cccc(Br)c1`, the activation is inactive: -0.283%.
